Molecular target: hERG potassium channel (Homo sapiens, UniProt Q12809)
Assay: hERG inhibitory activity assay (patch clamp method), HEK293 cells stably expressing hERG
Details: read-out: hERG inhibition EC50 value; whole-cell patch clamp, HEK293, 0.3-30 μM, room temperature
Text: Non-cardiac drugs may cause the prolongation of myocardial action potential duration by inhibiting the hERG (IKr) channel, increasing the possibility of life-threatening torsade de pointes (TdP) ventricular arrhythmia. In this experiment, HEK293 cell line without endogenous IKr current was used as host cell (this cell line was widely used in the detection of hERG) to evaluate the cardiotoxicity of Example 85 in patent CN108203438A and Example 87 of the present application.
(1) HEK293 cell line stably expressing hERG potassium channel was cultured in DMEM medium containing 10% fetal bovine serum and 0.8 mg/mL G418 under the condition of 37° C. and 5% CO2. […]
A capillary glass tube was drawn into a recording electrode with a microelectrode puller. […] Then, slow capacitance compensation was performed, and the membrane capacitance and series resistance were recorded. […]
When the hERG current of the whole-cell recording was stabilized, the drug was administered. […] The current detected for each cell in the compound-free extracellular fluid was used as its own control group. […]
[formula] and then the inhibition rate corresponding to each concentration was calculated
[formula] For each concentration, mean number and standard error were calculated, and the following equation was used to calculate the half inhibitory concentration of each compound: […]

Protein sequences, listed by entry. Tags and fused reporters are not part of them.
UniProt Q12809, whole entry: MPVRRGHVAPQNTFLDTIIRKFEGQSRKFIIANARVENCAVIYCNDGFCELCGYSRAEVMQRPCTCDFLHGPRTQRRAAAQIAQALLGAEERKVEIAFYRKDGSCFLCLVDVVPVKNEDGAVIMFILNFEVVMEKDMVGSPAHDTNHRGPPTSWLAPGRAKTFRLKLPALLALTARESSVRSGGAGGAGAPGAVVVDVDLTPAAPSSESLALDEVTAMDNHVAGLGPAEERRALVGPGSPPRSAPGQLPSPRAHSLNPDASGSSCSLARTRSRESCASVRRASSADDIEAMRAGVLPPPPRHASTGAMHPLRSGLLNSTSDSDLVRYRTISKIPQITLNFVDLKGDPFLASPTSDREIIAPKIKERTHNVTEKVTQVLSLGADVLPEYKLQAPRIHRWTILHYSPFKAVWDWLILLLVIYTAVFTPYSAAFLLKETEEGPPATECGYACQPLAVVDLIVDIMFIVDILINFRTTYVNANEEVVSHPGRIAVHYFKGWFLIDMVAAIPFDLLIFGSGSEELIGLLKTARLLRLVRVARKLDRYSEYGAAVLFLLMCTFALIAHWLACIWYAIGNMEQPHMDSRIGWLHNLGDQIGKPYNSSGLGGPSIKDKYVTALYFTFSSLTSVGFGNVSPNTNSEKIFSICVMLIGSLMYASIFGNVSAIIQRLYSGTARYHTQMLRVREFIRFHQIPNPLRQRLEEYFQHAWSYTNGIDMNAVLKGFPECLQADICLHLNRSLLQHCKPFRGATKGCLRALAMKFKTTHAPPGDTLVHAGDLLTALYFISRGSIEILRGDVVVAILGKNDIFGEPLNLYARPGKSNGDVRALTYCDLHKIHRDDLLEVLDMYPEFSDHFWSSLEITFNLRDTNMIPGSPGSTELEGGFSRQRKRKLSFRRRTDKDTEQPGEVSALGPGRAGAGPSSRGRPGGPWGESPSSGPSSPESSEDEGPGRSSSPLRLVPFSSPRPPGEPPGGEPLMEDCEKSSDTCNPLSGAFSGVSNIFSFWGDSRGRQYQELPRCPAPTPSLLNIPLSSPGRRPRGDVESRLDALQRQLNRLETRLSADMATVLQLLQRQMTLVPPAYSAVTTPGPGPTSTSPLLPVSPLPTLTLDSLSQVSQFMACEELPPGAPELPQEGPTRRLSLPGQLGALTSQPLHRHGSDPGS

Question: How did the EC50 turn out when `O=C(CNc1ccccc1)N1CCC(C(O)CC2c3ccccc3-c3cncn32)CC1` (stereo not shown) was run?
Answer: The EC50 was 1900 nM.

— US12551478B2, “Quinoline derivative having indoleamine-2,3-dioxygenase inhibitory activity” (SHENZHEN CHIPSCREEN BIOSCIENCES CO., LTD., priority 2018, dated 2026)
